# Experimental data reported in US20120114636A1, “LOW MOLECULAR WEIGHT CYCLIN E (LMW-E) AS A BIOMARKER FOR PERSONALIZATION OF CANCER THERAPIES” (The Board of Regents of the University of Texas System, priority 2009, published 2012).
# Legend:
# [1] = system: SKBr3 cells; experiment: High throughput clonogenic assay, trastuzumab and roscovitine; assay type: cell-based, human; settings: agents alone or in combination
# Method: (§1) FIGS. 27A-27B. […] FIG. 27B. […] Isobologram analysis and graphs were obtained using CalcuSyn software, which performs drug dose—effect calculation using the median effect method. Experiments were performed in triplicate and representative data are shown.
# [2] = system: BT474 cells; experiment: as above; assay type: cell-based, human; settings: agents alone or in combination
# Method: as §1
# [3] = system: SKBr3 cells; experiment: Confocal immunofluorescence of cyclin E expression after trastuzumab; assay type: cell-based, human; settings: 20 μg/mL trastuzumab, 48 hours
# Method: (§2) This was subsequently diluted in DMEM supplemented with 10% FBS, 2 mM L-glutamine, 100 U/mL penicillin, and 100 μg/mg streptomycin to concentrations of 10 μg/mL and 20 μg/mL. Twenty-four hours after 1×10^6 cells were plated on 100 mL plates, media were changed to low-serum media, DMEM with 0.5% FBS for MCF7, SKBr3, or BT474 cells and, for MCF-7-1 {ER-18 cells, DMEM with 0.5% FBS and 0.5 μg/mL G418.
# (§3) Primary antibodies included the monoclonal HER2/neu antibody (Cell Signaling, Danvers, Mass.) and polyclonal cyclin E, p21, and p27 antibodies (Santa Cruz Biotechnology Inc, Santa Cruz, Calif.), all at a 1:200 dilution. The following day, cells were incubated for 1 hour with a secondary antibody: fluorescein isothiocyanate-conjugated goat anti-mouse IgG was used for cells that had been treated with monoclonal antibodies, and rhodamine-conjugated goat anti-mouse IgG was used for cells treated with polyclonal antibodies. […] The multi-line argon laser was used to simultaneously stimulate green and red fluorescence, after which final images were obtained by merging the images from the green and red channels.
# (§4) TO-PRO-3-iodide (blue) was used as a nuclear stain. Cyclin E expression was quantified using Image-Pro Plus Software. […] For each cell line, bands corresponding to Histone H1 phosphorylation were quantitated through phosphoimaging. […]
# [4] = system: MCF-7-HER-18 cells; experiment: as above; assay type: cell-based, human; settings: 20 μg/mL trastuzumab, 48 hours
# Method: as §2, §3, §4
# [5] = system: MCF-7-HER-18 breast cancer xenograft; experiment: HER2-overexpressing breast cancer xenograft, immunohistochemistry of tumors; assay type: in vivo, nude mice; settings: trastuzumab intraperitoneal twice weekly for 3 weeks vs PBS
# [6] = system: cyclin E-associated kinase activity in SKBr3 cells; experiment: Cyclin E-associated kinase assay (histone H1) on lysates of treated cells; assay type: cell-based, human; settings: trastuzumab treatment vs untreated control
# Method: siRNA Transfections MCF-7, MCF-7-HER-18, SKBr3, and BT474 cells were transiently transfected with the predesigned siRNA to the HER2/neu gene. Briefly, 5×10^4-1×10^5 cells/well were plated in 6-well plates 24 hours before transfection. Five-hundred microliters of opti-MEM medium (Gibco; Invitrogen, Carlsbad, Calif.) and 12.5 μL of 50 μM HER2 siRNA were mixed for 10 minutes at room temperature. Simultaneously, 500 μL of opti-MEM medium and 7.5 μL of X-treme GENE siRNA transfection reagent (Roche Applied Science, Base1, Germany) were mixed for 10 minutes at room temperature. The two mixtures were then combined for an additional 20 minutes. […] Seventy-two hours after transfection, cells were harvested for analysis by flow cytometry, western blot, kinase assay, and real-time quantitative polymerase chain reaction (qRT-PCR). […]
# Western Blot Analysis and Immunoprecipitation Kinase Assays Cell lysates were prepared and subjected to western blot analysis as previously described (Rao et al., 1998). […] Membranes were developed and protein signals detected by using chemiluminescence western blotting detection reagents (Amersham Biosciences, Buckinghamshire, England). […] For quantitation of relative kinase activity, the bands corresponding to histone H1 were analyzed on a phosphoimager Typhoon 9400 machine (Amersham Biosciences, Sunnyvale, Calif.). […]
# [7] = system: MCF-7-HER-18 and SKBr3 cells; experiment: Western blot and confocal microscopy of G1 regulators after trastuzumab; assay type: cell-based, human
# [8] = system: HER2-overexpressing tumors; settings: Cobleigh et al., 1999; Vogel et al., 2002; cited from earlier work
# [9] = western blot, trastuzumab vs untreated control cells
substance,measurement,setting,value
trastuzumab,cell viability,[1],dose-dependent reduction in cell viability
same,cell viability,[2],dose-dependent reduction in cell viability
same,decrease in cyclin E expression compared to levels in untreated cells,[3],86.8%
same,decrease in cyclin E expression compared to levels in untreated cells,[4],86.5%
same,cyclin E expression in tumors,[5],concomitant decrease in cyclin E expression
same,decrease in cyclin E-associated kinase activity,[6],60%
same,nuclear localization of CDK inhibitors p21 and p27,"[7]; confocal microscopy, 10 or 20 μg/mL trastuzumab, 48 hours",increased nuclear localization
same,expression of cyclin D1,[7]; [9],decreased
same,p21 or p27 expression,[7]; [9],No appreciable change
same,patients in whom effective as a single agent,[8],35%
